Literature values in PubChem BioAssay AID977610.
pKi: −log10 of the molar value.

Tests used:
Experiment in all cases: PubChem AID 977610
[1] = molecular target: nuclear receptor ror-beta; conditions: PDB protein-ligand complexes, literature Ki; protein: nuclear receptor ror-beta; PDB entry 1NQ7
[2] = molecular target: retinoic acid receptor rxr-alpha; conditions: PDB protein-ligand complexes, literature Ki; protein: retinoic acid receptor rxr-alpha; PDB entry 1FM9
[3] = molecular target: metalloproteinase; conditions: PDB protein-ligand complexes, literature Ki; protein: metalloproteinase; PDB entry 1KUI
[4] = molecular target: thrombin; conditions: PDB protein-ligand complexes, literature Ki; protein: thrombin; PDB entry 1GJ5
[5] = molecular target: alkaline phosphatase; conditions: PDB protein-ligand complexes, literature Ki; protein: alkaline phosphatase; PDB entry 1EW8
[6] = molecular target: coagulation factor xa; conditions: PDB protein-ligand complexes, literature Ki; protein: coagulation factor xa; PDB entry 1FAX
[7] = molecular target: oxygen-insensitive nad(p)h nitroreductase; conditions: PDB protein-ligand complexes, literature Ki; protein: oxygen-insensitive nad(p)h nitroreductase; PDB entry 1KQB
[8] = molecular target: 6-phosphofructokinase; conditions: PDB protein-ligand complexes, literature Ki; protein: 6-phosphofructokinase; PDB entry 1MTO
[9] = molecular target: ornithine decarboxylase; conditions: PDB protein-ligand complexes, literature Ki; protein: ornithine decarboxylase; PDB entry 1NJJ
[10] = molecular target: beta-hydroxysteroid dehydrogenase; conditions: PDB protein-ligand complexes, literature Ki; protein: beta-hydroxysteroid dehydrogenase; PDB entry 1I5R
[11] = molecular target: deoxyuridine 5'-triphosphate nucleotidohydrolase; conditions: PDB protein-ligand complexes, literature Ki; protein: deoxyuridine 5'-triphosphate nucleotidohydrolase; PDB entry 1DUD
[12] = molecular target: proline-trna synthetase; conditions: PDB protein-ligand complexes, literature Ki; protein: proline-trna synthetase; PDB entry 1NJ5
[13] = molecular target: secretase beta; conditions: PDB protein-ligand complexes, literature Ki; protein: secretase beta; PDB entry 1FKN
[14] = molecular target: serine/threonine-protein kinase chk1; conditions: PDB protein-ligand complexes, literature Ki; protein: serine/threonine-protein kinase chk1; PDB entry 1NVQ
[15] = molecular target: 5'-deoxy-5'-methylthioadenosine phosphorylase; conditions: PDB protein-ligand complexes, literature Ki; protein: 5'-deoxy-5'-methylthioadenosine phosphorylase; PDB entry 1K27
[16] = molecular target: mta/sah nucleosidase; conditions: PDB protein-ligand complexes, literature Ki; protein: mta/sah nucleosidase; PDB entry 1Y6R
[17] = molecular target: hiv-1 protease (hiv-1 pr); conditions: PDB protein-ligand complexes, literature Ki; protein: hiv-1 protease (hiv-1 pr); PDB entry 1HIV
[18] = molecular target: phosphoenolpyruvate phosphomutase; conditions: PDB protein-ligand complexes, literature Ki; protein: phosphoenolpyruvate phosphomutase; PDB entry 1M1B
[19] = molecular target: phosphoenolpyruvate carboxykinase (PEPCK),mutation A467G; conditions: PDB protein-ligand complexes, literature Ki; protein: phosphoenolpyruvate carboxykinase (PEPCK),mutation A467G; PDB entry 3MOE
[20] = molecular target: isocitrate dehydrogenase; conditions: PDB protein-ligand complexes, literature Ki; protein: isocitrate dehydrogenase; PDB entry 1GRP
[21] = molecular target: ribulose-1,5 bisphosphate carboxylase/oxygenase; conditions: PDB protein-ligand complexes, literature Ki; protein: ribulose-1,5 bisphosphate carboxylase/oxygenase; PDB entry 1OZV
[22] = molecular target: Homocitrate synthase, mitochondrial,HCS; conditions: PDB protein-ligand complexes, literature Ki; protein: Homocitrate synthase, mitochondrial,HCS; PDB entry 3MI3
[23] = molecular target: Homocitrate synthase; conditions: PDB protein-ligand complexes, literature Ki; protein: Homocitrate synthase; PDB entry 3A9I
[24] = molecular target: neuraminidase; conditions: PDB protein-ligand complexes, literature Ki; protein: neuraminidase; PDB entry 1F8C
[25] = molecular target: epoxide hydrolase; conditions: PDB protein-ligand complexes, literature Ki; protein: epoxide hydrolase; PDB entry 1EK1
[26] = molecular target: sialidase; conditions: PDB protein-ligand complexes, literature Ki; protein: sialidase; PDB entry 1N1T
[27] = molecular target: NEURAMINIDASE A; conditions: PDB protein-ligand complexes, literature Ki; protein: NEURAMINIDASE A; PDB entry 2YA6
[28] = molecular target: antibody fab fragment; conditions: PDB protein-ligand complexes, literature Ki; protein: antibody fab fragment; PDB entry 1IBG
[29] = molecular target: hypoxanthine phosphoribosyltransferase; conditions: PDB protein-ligand complexes, literature Ki; protein: hypoxanthine phosphoribosyltransferase; PDB entry 1G9T
[30] = molecular target: thrombin pro; conditions: PDB protein-ligand complexes, literature Ki; protein: thrombin pro; PDB entry 1K21
[31] = molecular target: xaa-pro aminopeptidase; conditions: PDB protein-ligand complexes, literature Ki; protein: xaa-pro aminopeptidase; PDB entry 1N51
[32] = molecular target: FK506 binding protein; conditions: PDB protein-ligand complexes, literature Ki; protein: FK506 binding protein; PDB entry 1J4R

Q: With CC(/C=C/C=C(\C)c1cc(C(C)(C)C)cc(C(C)(C)C)c1)=C\C(=O)O as the compound, how does the pKi [1] read?
A: The pKi was 6.80.

Q: With Cc1oc(-c2ccccc2)nc1CCOc1ccc(C[C@H](Nc2ccccc2C(=O)c2ccccc2)C(=O)O)cc1 as the compound, how does the pKi [2] read?
A: The pKi was 9.00.

Q: With NC(=O)CC[C@H](NC(=O)[C@@H]1CCC(=O)N1)C(=O)N[C@@H](Cc1c[nH]c2ccccc12)C(=O)O as the compound, how does the pKi [3] read?
A: The pKi was 3.77.

Q: With N=C(N)c1ccc2nc(-c3cccc(-c4ccccc4)c3O)[nH]c2c1 as the compound, how does the pKi [4] read?
A: The pKi was 4.96.

Q: With O=C(O)CP(=O)(O)O as the compound, how does the pKi [5] read?
A: The pKi was 2.26.

Q: With CC(=N)N1CC[C@H](Oc2ccc([C@H](Cc3ccc4ccc(C(=N)N)cc4c3)C(=O)O)cc2)C1 as the compound, how does the pKi [6] read?
A: Its pKi is 7.39.

Q: With O=C(O)c1ccccc1 as the compound, how does the pKi [7] read?
A: The pKi was 4.00.

Q: With O=P(O)(O)OC[C@H]1O[C@](O)(CO)[C@@H](O)[C@@H]1O as the compound, how does the pKi [8] read?
A: Its pKi is 6.96.

Q: With CN[C@@H]1[C@@H](O)[C@@H](O[C@@H]2[C@@H](O)[C@H](O[C@H]3O[C@H]([C@H](C)O)[C@@H](O)[C@H](O)[C@H]3N)[C@@H](N)C[C@H]2N)OC[C@]1(C)O as the compound, how does the pKi [9] read?
A: The pKi was 2.10.

Q: With C[C@]12CC[C@@H]3c4ccc(O)cc4CC[C@H]3[C@@H]1C[C@H](CCCCCCCCC(=O)OC[C@H]1O[C@@H](n3cnc4c(N)ncnc43)[C@H](O)[C@@H]1O)[C@@H]2O as the compound, how does the pKi [10] read?
A: Its pKi is 8.52.

Q: With O=c1ccn([C@H]2C[C@H](O)[C@@H](COP(=O)(O)OP(=O)(O)O)O2)c(=O)[nH]1 as the compound, how does the pKi [11] read?
A: Its pKi is 4.82.

Q: With Nc1ncnc2c1ncn2[C@@H]1O[C@H](COS(=O)(=O)NC(=O)[C@@H]2CCCN2)[C@@H](O)[C@H]1O as the compound, how does the pKi [12] read?
A: Its pKi is 7.30.

Q: With CC(C)C[C@H](NC(=O)[C@H](CC(N)=O)NC(=O)[C@@H](NC(=O)[C@@H](N)CCC(=O)O)C(C)C)[C@@H](O)C[C@@H](C)C(=O)N[C@@H](C)C(=O)N[C@@H](CCC(=O)O)C(=O)N[C@@H](Cc1ccccc1)C(=O)O as the compound, how does the pKi [13] read?
A: Its pKi is 8.80.

Q: With CN[C@@H]1C[C@H]2O[C@@](C)([C@@H]1OC)n1c3ccccc3c3c4c(c5c6ccccc6n2c5c31)C(=O)NC4=O as the compound, how does the pKi [14] read?
A: Its pKi is 8.25.

Q: With CSC[C@H]1N[C@@H](c2c[nH]c3c(N)ncnc23)[C@H](O)[C@@H]1O as the compound, how does the pKi [15] read?
A: The pKi was 9.00.

Q: And the pKi [16]?
A: The pKi was 10.11.

Q: With CC[C@H](C)[C@H](NC(=O)[C@H](C(C)C)[C@@H](O)[C@H](O)[C@H](CC1CCCCC1)NC(=O)[C@H](Cc1cnc[nH]1)NC(=O)COc1cccc2ccccc12)C(=O)NCc1ccccn1 as the compound, how does the pKi [17] read?
A: Its pKi is > 9.00.

Q: With O=C(O)C(=O)CS(=O)(=O)O as the compound, how does the pKi [18] read?
A: The pKi was 4.66.

Q: What about the pKi [19] of the same compound?
A: The pKi was 4.30.

Q: With O=C(O)C[C@H](C(=O)O)[C@@H](O)C(=O)O as the compound, how does the pKi [20] read?
A: Its pKi is 3.72.

Q: What does the source list for NCCCC[C@H](N)C(=O)O?
A: pKi [21]: 1.44; pKi [22]: 5.45; pKi [23]: 4.15

Q: With CC(=O)N[C@H]1[C@H]([C@H](O)[C@H](O)CO)OC(C(=O)O)=C[C@@H]1N as the compound, how does the pKi [24] read?
A: The pKi was 7.40.

Q: With O=C(Nc1ccc(I)cc1)NC1CCCCC1 as the compound, how does the pKi [25] read?
A: Its pKi is 7.77.

Q: With CC(=O)N[C@H]1[C@H]([C@H](O)[C@H](O)CO)OC(C(=O)O)=C[C@@H]1O as the compound, how does the pKi [26] read?
A: The pKi was 3.85.

Q: What about the pKi [27] of the same compound?
A: Its pKi is 5.70.

Q: With C[C@@H]1O[C@@H](O[C@H]2C[C@@H](O)[C@]3(CO)[C@H]4[C@H](O)C[C@]5(C)[C@@H](C6=CC(=O)OC6)CC[C@]5(O)[C@@H]4CC[C@]3(O)C2)[C@H](O)[C@H](O)[C@H]1O as the compound, how does the pKi [28] read?
A: The pKi was 8.55.

Q: With Nc1nc2c(ncn2[C@@H]2O[C@H](COP(=O)(O)O)[C@@H](O)[C@H]2O)c(=O)[nH]1 as the compound, how does the pKi [29] read?
A: Its pKi is 3.28.

Q: With NC(N)=NCCCNC(=O)[C@@H]1CCCCN1C(=O)[C@@H](CC1CCCCC1)NCC(=O)O as the compound, how does the pKi [30] read?
A: Its pKi is 8.38.

Q: With C[C@H](NC(=O)[C@@H]1CCCN1C(=O)[C@@H]1CCCN1C(=O)[C@@H](O)[C@H](N)Cc1ccccc1)C(N)=O as the compound, how does the pKi [31] read?
A: The pKi was 4.85.

Q: With COc1cc(C(F)(F)C(=O)N2CCCC[C@H]2C(=O)O[C@@H](CCCc2ccccc2)CCCc2cccnc2)cc(OC)c1OC as the compound, how does the pKi [32] read?
A: The pKi was 7.72.
